Data: patent US20230218577A1, “USE OF HEAT SHOCK PROTEIN INHIBITORS FOR THE TREATMENT OF NEURODEVELOPMENTAL DISORDERS” (The Children's Medical Center Corporation, priority 2020, published 2023)
Like-named read-outs stand apart in the source and are kept apart here.

Tested on: mTORC1 activity (pS6) in Tsc2-sh hippocampal neurons
Assay: mTORC1 high-content screen (mTORC1^HCA) with the Biomol collection library
[1] = Z-score of percent GFP+pS6+ neurons in compound-treated Tsc2-knockdown wells, DIV20, Biomol library screen, replica 1
[2] = Z-score of percent GFP+pS6+ neurons in compound-treated Tsc2-knockdown wells, DIV20, Biomol library screen, replica 2
[3] = Z-score of percent GFP+pS6+ neurons in compound-treated Tsc2-knockdown wells, DIV20, Biomol library, replica 1
[4] = Z-score of percent GFP+pS6+ neurons in compound-treated Tsc2-knockdown wells, DIV20, Biomol library, replica 2

COc1ccc(CCN(C)CCCC(C#N)(c2cc(OC)c(OC)c(OC)c2)C(C)C)cc1OC.Cl (stereo not shown) [Methoxyverapimil • HCl]
T2 Zscore (Replica 1): 0.5721 | T2 Zscore (Replica 2): 0.2991

CO[C@@]12[C@H](COC(N)=O)C3=C(C(=O)C(C)=C(N)C3=O)N1C[C@@H]1N[C@@H]12 [Mitomycin C]
T2 Zscore (Replica 1): −0.3674 | T2 Zscore (Replica 2): −0.7225

Cl.O=C([O-])c1ccc(-c2c3nc(c(-c4ccc(C(=O)O)cc4)c4nc(c(-c5ccc(C(=O)O)cc5)c5ccc([nH]5)c(-c5ccc(C(=O)[O-])cc5)c5ccc2[n-]5)C=C4)C=C3)cc1.[Mn+3] [MnTBAP chloride]
T2 Zscore (Replica 1): −0.1478 | T2 Zscore (Replica 2): −0.3574

CCOC(=O)C1=C(C)NC(=S)NC1c1cccc(O)c1 (stereo not shown) [Monastrol]
T2 Zscore (Replica 1) [1]: 0.5295 | T2 Zscore (Replica 2) [2]: 0.8621

CC(C)n1cnc2c(NCc3ccccc3)nc(NCCO)nc21 [N9-Isopropylolomoucine]
T2 Zscore (Replica 1): −0.7594 | T2 Zscore (Replica 2): −0.08061

CC(=O)N[C@@H](CSC/C=C(\C)CCC=C(C)C)C(=O)O [N-Acetyl-S-geranyl-L-cysteine]
T2 Zscore (Replica 1) [1]: 0.00411 | T2 Zscore (Replica 2) [2]: 0.8748

CCCCC/C=C\C\C=C/C=C/C=C/[C@@H](SCC(NC(C)=O)C(=O)O)[C@@H](O)CCCC(=O)O (stereo partly shown) [N-Acetyl-leukotriene E4]
T2 Zscore (Replica 1): −2.975 | T2 Zscore (Replica 2): 1.161

O=C(O)c1ccccc1Nc1ccccc1 [N-Phenylanthranilic acid]
T2 Zscore (Replica 1) [1]: 0.1388 | T2 Zscore (Replica 2) [2]: −0.2022

CCCCC/C=C\C/C=C\C/C=C\C/C=C\CCCC(=O)NCC(=O)O [N-arachidonoylglycine]
T2 Zscore (Replica 1): −0.1329 | T2 Zscore (Replica 2): −0.3761

O=C(O)c1cc([N+](=O)[O-])ccc1NCCCc1ccccc1 [NPPB]
T2 Zscore (Replica 1): 0.8821 | T2 Zscore (Replica 2): 1.478

CS(=O)(=O)Nc1ccc([N+](=O)[O-])cc1OC1CCCCC1 [NS-398]
T2 Zscore (Replica 1) [1]: 1.289 | T2 Zscore (Replica 2) [2]: −0.5141

O=c1[nH]c2cc(C(F)(F)F)ccc2n1-c1cc(C(F)(F)F)ccc1O [NS-1619]
T2 Zscore (Replica 1): 0.05511 | T2 Zscore (Replica 2): 0.2919

O=C1C(SCCO)=C(SCCO)C(=O)c2ccccc21 [NSC-95397]
T2 Zscore (Replica 1): −1.928 | T2 Zscore (Replica 2): −1.51

CCC(C)[C@H](NS(=O)(=O)c1cccc2ccccc12)C(=O)N[C@H](C=O)Cc1c[nH]c2ccccc12 (stereo partly drawn) [NapSul-Ile-Trp-CHO]
T2 Zscore (Replica 1): 0.2642 | T2 Zscore (Replica 2): −0.9931

CS(=O)(=O)Nc1ccc([N+](=O)[O-])cc1Oc1ccccc1 [Nimesulide]
T2 Zscore (Replica 1) [3]: 0.7431 | T2 Zscore (Replica 2) [4]: 1.024

CCOC(=O)C1=C(C)NC(C)=C(C(=O)OC)C1c1cccc([N+](=O)[O-])c1 (stereo not shown) [Nitrendipine]
T2 Zscore (Replica 1) [1]: 0.1595 | T2 Zscore (Replica 2) [2]: −0.1508

COC(=O)Nc1nc2ccc(C(=O)c3cccs3)cc2[nH]1 [Nocodazole]
T2 Zscore (Replica 1) [3]: 1.308 | T2 Zscore (Replica 2) [4]: 0.5318

CCCCCCCCCCCCCCCCCCc1ccc(C(=O)/C=C/C(=O)O)cc1 [OBAA]
T2 Zscore (Replica 1): 0.1726 | T2 Zscore (Replica 2): 0.8212

CCCCCCCCCCCCCCCCOC[C@H](COP(=O)([O-])OCC[N+](C)(C)C)OC(C)=O [PAF C16]
T2 Zscore (Replica 1): −0.6055 | T2 Zscore (Replica 2): −0.5014

CCCCCCCC/C=C\CCCCCCCCOC[C@H](COP(=O)([O-])OCC[N+](C)(C)C)OC(C)=O [PAF C18:1]
T2 Zscore (Replica 1): 0.3776 | T2 Zscore (Replica 2): −0.5519
